{"source": "patent US12570750B2", "about": "“Antibodies that bind adenosine A2A receptors and methods of use thereof to treat cancer and neurological diseases” (Twist Bioscience Corporation, priority 2019, dated 2026)", "molecules": {"B1": {"name": "A2A-1: A2AR variant immunoglobulin, CDRH1-3 SEQ ID NOs 6/95/184 (antibody, V domains shown)", "VH": "QVQLQESGPGLVKPSGTLSLTCAVSGGSISSSNWWSWVRQPPGKGLEWIGEIYPSGNTYYNPSLKSRVTISVDKSKNQFSLKLNSVTAADTAVYYCARDEGYWGQGTLVTVSS", "VL": "[about 100 residues omitted]RTFGQGTKVDIK"}}, "key": {"adenosine A2A receptor [1]": {"target": "T1, adenosine A2A receptor (Homo sapiens, UniProt P29274)", "experiment": "A2A cAMP antagonist titration: fixed 100 nM IgG, then NECA titration", "type": "cell-based", "conditions": "Table 9", "method": "Buffer was PBS+0.1% BSA+0.5 mM IBMX.\nA2A-9 was assayed as described in Example 15."}, "adenosine A2A receptor [2]": {"target": "T1, adenosine A2A receptor", "experiment": "LANCE allosteric cAMP assay: titrated IgG, then fixed NECA concentration", "type": "cell-based", "conditions": "Table 10", "method": "A2A-1 and A2A-9 were assayed for allosteric modulation.\nA2A-9 was assayed as described in Example 16."}}, "data": [{"molecule": "B1", "values": [{"measurement": "Functional classification from NECA titration", "setting": "adenosine A2A receptor [1]", "result": "negative allosteric modulator"}, {"measurement": "Functional classification from IgG titration", "setting": "adenosine A2A receptor [2]", "result": "negative allosteric modulator"}]}]}
